Measured values from publication PMC9841521, “Subnanomolar Affinity and Selective Antagonism at α7 Nicotinic Receptor by Combined Modifications of 2-Triethylammonium Ethyl Ether of 4-Stilbenol (MG624)” (Journal of Medicinal Chemistry, 2022).

The chains behind the UniProt entries cited, without tags or fusion partners. Residues count along the entry.
UniProt P36544, 23-502 limits assumed: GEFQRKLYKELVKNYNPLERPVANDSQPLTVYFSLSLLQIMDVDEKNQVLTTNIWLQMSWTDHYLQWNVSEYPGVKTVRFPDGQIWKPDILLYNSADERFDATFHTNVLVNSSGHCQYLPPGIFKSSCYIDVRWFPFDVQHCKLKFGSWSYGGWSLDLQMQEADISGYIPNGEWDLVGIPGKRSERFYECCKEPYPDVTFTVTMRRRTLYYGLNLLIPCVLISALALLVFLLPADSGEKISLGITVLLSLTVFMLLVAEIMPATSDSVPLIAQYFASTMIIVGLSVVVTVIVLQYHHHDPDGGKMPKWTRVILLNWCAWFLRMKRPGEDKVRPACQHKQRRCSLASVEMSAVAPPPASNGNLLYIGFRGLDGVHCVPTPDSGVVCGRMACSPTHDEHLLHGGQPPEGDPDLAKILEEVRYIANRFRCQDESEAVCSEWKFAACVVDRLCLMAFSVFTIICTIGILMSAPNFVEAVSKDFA

Target: human α7-nAChR (Homo sapiens, UniProt P36544)
Details: read-out: α7-nAChR [125I]-αBgtx Ki; human α7 expressed in SH-SY5Y cells; confidence interval in parentheses

| SMILES | Ki |
| --- | --- |
| CC[N+](CC)(CC)CCOc1ccc(/C=C/c2ccc(Br)cc2)cc1 | 723 nM |
| CC[N+](CC)(CC)CCOc1ccc(/C=C/c2cccc(Br)c2)cc1 | 1040 nM |
| CC[N+](CC)(CC)CCOc1ccc(/C=C/c2cccc(OC)c2)cc1 | 621 nM |
| CC[N+](CC)(CC)CCOc1ccc(/C=C/c2ccccc2Br)cc1 | 525 nM |
| CC[N+](CC)(CC)CCOc1ccc(COc2ccccc2)cc1 | 2600 nM |
| CC[N+](CC)(CC)CCOc1ccccc1 [Compound 3, N,N,N-Triethyl-2-phenoxyethan-1-aminium Iodide] | 27000 nM |
| C=Cc1ccc(OCC[N+](CC)(CC)CC)cc1 [Compound 4, N,N,N-Triethyl-2-(4-vinylphenoxy)ethan-1-aminium Iodide] | 285 nM |
| CC[N+](CC)(CC)CCOc1ccc(-c2ccccc2)cc1 [Compound 5, 2-([1,1′-Biphenyl]-4-yloxy)-N,N,N-triethylethan-1-aminium Iodide] | 129 nM |
| CC[N+](CC)(CC)CCOc1ccc(CCc2ccccc2)cc1.[I-] [Compound 6, N,N,N-Triethyl-2-(4-phenethylphenoxy)ethan-1-aminium Iodide] | 1650 nM |
| CC[N+](CC)(CC)CCOc1ccc(C#Cc2ccccc2)cc1 [Compound 7, N,N,N-Triethyl-2-(4-(phenylethynyl)phenoxy)ethan-1-aminium Iodide] | 664 nM |
| CC[N+](CC)(CC)CCOc1ccc(-c2cccc3ccccc23)cc1.[I-] [Compound 9, N,N,N-Triethyl-2-(4-(naphthalen-1-yl)phenoxy)ethan-1-aminium Iodide] | 3110 nM |
| CC[N+](CC)(CC)CCOc1ccc(/C=C/c2cccc3ccccc23)cc1 [Compound 10, (E)-N,N,N-Triethyl-2-(4-(2-(naphthalen-1-yl)vinyl)phenoxy)ethan-1-aminium Iodide] | 1350 nM |
| CC[N+](CC)(CC)CCOc1ccc(/C=C/c2ccc3ccccc3c2)cc1 [Compound 11, (E)-N,N,N-Triethyl-2-(4-(2-(naphthalen-2-yl)vinyl)phenoxy)ethan-1-aminium Iodide] | 1000 nM |
| CC[N+](CC)(CC)CCOc1ccc(/C=C/c2cccc(C(F)(F)F)c2)cc1 [Compound 15, (E)-N,N,N-Triethyl-2-(4-(3-(trifluoromethyl)styryl)phenoxy)ethan-1-aminium Iodide] | 1520 nM |
| CC[N+](CC)(CC)CCOc1ccc(/C=C/c2ccc(C(F)(F)F)cc2)cc1 [Compound 16, (E)-N,N,N-Triethyl-2-(4-(4-(trifluoromethyl)styryl)phenoxy)ethan-1-aminium Iodide] | 1330 nM |
| CC[N+](CC)(CC)CCOc1ccc(/C=C/c2ccc(OC)cc2)cc1 [Compound 18, (E)-N,N,N-Triethyl-2-(4-(4-methoxystyryl)phenoxy)ethan-1-aminium Iodide] | 353 nM |
| CC[N+](CC)(CC)CCOc1ccc(/C=C/c2cccc(O)c2)cc1 [Compound 19, (E)-N,N,N-Triethyl-2-(4-(3-hydroxystyryl)phenoxy)ethan-1-aminium Iodide] | 573 nM |
| CC[N+](CC)(CC)CCOc1ccc(/C=C/c2ccc(O)cc2)cc1 [Compound 20, (E)-N,N,N-Triethyl-2-(4-(4-hydroxystyryl)phenoxy)ethan-1-aminium Iodide] | 342 nM |
| CC[N+](CC)(CC)CCOc1ccc(/C=C/c2cc(O)cc(O)c2)cc1 [Compound 22, (E)-2-(4-(3,5-Dihydroxystyryl)phenoxy)-N,N,N-triethylethan-1-aminium Iodide] | 242 nM |
| CC[N+](CC)(CC)CCOc1ccc(OCc2ccccc2)cc1 [Compound 23, 2-(4-(Benzyloxy)phenoxy)-N,N,N-triethylethan-1-aminium Iodide] | 1010 nM |
| CC[N+](CC)(CC)CCOc1ccc(NC(=O)c2ccccc2)cc1 [Compound 25, 2-(4-Benzamidophenoxy)-N,N,N-triethylethan-1-aminium Iodide] | 862 nM |
| CC[N+](CC)(CC)CCOc1ccc(C(=O)Nc2ccccc2)cc1 [Compound 26, N,N,N-Triethyl-2-(4-(phenylcarbamoyl)phenoxy)ethan-1-aminium Iodide] | 250 nM |
| CC[N+](CC)(CC)CCOc1ccc(/N=N/c2ccccc2)cc1.[I-] [Compound 27, (E)-N,N,N-Triethyl-2-(4-(phenyldiazenyl)phenoxy)ethan-1-aminium Iodide] | 526 nM |
| CC[N+](CC)(CC)CCOc1ccc(-c2ccc3cc[nH]c3c2)cc1.[I-] [Compound 30, 2-(4-(1H-Indol-6-yl)phenoxy)-N,N,N-triethylethan-1-aminium Iodide] | 184 nM |
| CC[N+](CC)(CC)CCOc1ccc(-c2ccc3occc3c2)cc1 [Compound 32, 2-(4-(Benzofuran-5-yl)phenoxy)-N,N,N-triethylethan-1-aminium Iodide] | 450 nM |
